## scFv variants of Ab-14 (heavy chain) against a SARS-CoV-2 spike peptide

The target is the same throughout: PDVDLGDISGINAS, from the HR2 region of SARS-CoV-2 spike.

Parent: Ab-14, a human scFv built as VH, a (GGGGS)3 linker, VL. Only the CDRs of the heavy chain vary.
VH: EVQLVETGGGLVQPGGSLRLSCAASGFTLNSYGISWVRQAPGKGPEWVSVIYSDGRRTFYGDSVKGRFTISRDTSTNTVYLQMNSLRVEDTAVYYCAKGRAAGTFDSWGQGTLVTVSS
VL: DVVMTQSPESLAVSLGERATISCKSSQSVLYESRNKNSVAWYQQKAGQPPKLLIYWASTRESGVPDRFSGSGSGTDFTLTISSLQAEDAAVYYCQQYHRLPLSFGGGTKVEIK

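These sequences belong to a second round, designed from the earlier measurements on random variants of the parent. Group labels follow the data file (Ctrl: baseline library sampled from a position-specific scoring matrix, with some repeated check sequences; Rand: our label for a block that the file lists under HC and that is probably the random mutants of the ten best first-round binders; GP: Gaussian process model; GPLM: also part of the Gaussian process libraries; HC: hill climbing; Gen: genetic algorithm; Gibbs: Gibbs sampling; a sequence that several methods proposed may carry one label only). The assay is AlphaSeq: two haploid yeast populations carry antibody and antigen on their surface. After mating in shaken culture at 30 °C for 16 h, diploids were selected and their barcode pairs sequenced. A regression on co-assayed BCL2-family reference pairs converts the normalised counts of each replicate to an apparent Kd. The assay was run in six technical replicates.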

Changes read parent residue, position, new residue, counted from the first residue of the VH shown. This list holds designs with at most six substitutions. Kd is apparent (estimated from mating counts) and averaged on the log scale over replicates with a signal. Smaller is tighter. "no signal" marks a missing value. The strain was present, yet no cells mated with the target were sequenced in any replicate, which points to weak or no binding. The parent sequence was in this pool as ten entries: three were never detected, three once, and four in most replicates, with averages from 2.2 nM to 240 nM.

For T28G+R100T+A102K+S107T [Ctrl], the assay gave no signal (0 of 6 replicates; controls 0 of 18). The variant F27E+G99T+A102S [Ctrl] showed no signal (0 of 6 replicates; controls 0 of 18). The variant T28D+S31E+S63A+R100E [GP_HC] gave 4.2 nM (6 of 6 replicates; controls 0 of 18). For N30L+R100E+A101N+A102S [Ctrl], the assay gave no signal (0 of 6 replicates; controls 0 of 18). With S31D+Y32H+A101M+F105P [Ctrl] the result was no signal (0 of 6 replicates; controls 0 of 18). The variant S31E+S63R+G103V+S107T [GP_HC] showed no signal (0 of 6 replicates; controls 0 of 18). The variant S31E+Y32V+R56E+G61T+A101F [Rand] showed 86 nM (5 of 6 replicates; controls 0 of 18).

The variant S53A+A102W+F105N+D106K [Rand] showed 24 nM (1 of 6 replicates; controls 0 of 18). With T28D+F59A+S63R+A101Q [GP_Gibbs] the result was 860 pM (6 of 6 replicates; controls 0 of 18). With T28D+R56L+G61D+R100K [GP_Gibbs] the result was 2.6 nM (6 of 6 replicates; controls 0 of 18). The variant N30E+G61A+A101V+S107T [GP_Gibbs] gave 3.4 nM (6 of 6 replicates; controls 1 of 18). The variant S31D+F59W+A101Y [GP_HC] showed 11 nM (6 of 6 replicates; controls 0 of 18). With S31E+G61A+S63E [Ctrl] the result was 1.3 nM (6 of 6 replicates; controls 0 of 18). With S31D+F105D [Ctrl] the result was no signal (0 of 6 replicates; controls 0 of 18).

With S31E+S53A+A101T+S107T [GP_Gibbs] the result was 450 pM (6 of 6 replicates; controls 0 of 18). For T28P+S31Q+F59A [Ctrl], the assay gave 1.5 nM (6 of 6 replicates; controls 1 of 18). For L29I+S31D+R100S+D106T [Ctrl], the assay gave no signal (0 of 6 replicates; controls 0 of 18). The variant T28S+G61S+R100Q+A101V [GPLM_Gen] showed 39 nM (5 of 6 replicates; controls 0 of 18). The variant T28D+S63N+A101E+S107D [GP_Gibbs] gave 930 pM (6 of 6 replicates; controls 0 of 18). With S31E+G33S+S53E+G61T+A101F [Rand] the result was no signal (0 of 6 replicates; controls 0 of 18). For T28Q+S31D+G61Q+A101T [GP_Gibbs], the assay gave 880 pM (6 of 6 replicates; controls 0 of 18).

With T28E+G61I+S63D+A101Q [GP_Gibbs] the result was 5.4 nM (6 of 6 replicates; controls 0 of 18). The variant S31A+Y32A+Y52G+F105N+D106K [Rand] gave no signal (0 of 6 replicates; controls 0 of 18). With D62I [Ctrl] the result was no signal (0 of 6 replicates; controls 0 of 18). With N30K+D62N+G99S+A101V+D106L [Ctrl] the result was no signal (0 of 6 replicates; controls 0 of 18). The variant T28S+D54N+S63D+K65R+G103K [Ctrl] gave no signal (0 of 6 replicates; controls 0 of 18). For G61S+A102G+G103V+S107V [GPLM_HC], the assay gave no signal (0 of 6 replicates; controls 1 of 18). For T28D+S31T+R100E+S107R [GPLM_Gibbs], the assay gave 1.2 nM (6 of 6 replicates; controls 0 of 18).

The variant G61A+A101T+D106W [GPLM_Gen] showed 520 pM (3 of 6 replicates; controls 0 of 18). The variant N30D+G61A+A101L [GPLM_Gen] showed 1.3 nM (6 of 6 replicates; controls 0 of 18). The variant T28S+D106L [Ctrl] gave 100 nM (4 of 6 replicates; controls 0 of 18). With S31E+R56M+G61S+T104F [GP_HC] the result was no signal (0 of 6 replicates; controls 2 of 18). The variant T28E+S53A+A101L [GP_Gen] gave 410 pM (6 of 6 replicates; controls 0 of 18).

Picked from the list: the 2 lowest averages where every replicate gave a value.

changes	group	Kd (apparent)	seen in	control signals
T28E+S53A+A101L	GP_Gen	410 pM	6 of 6	0 of 18
S31E+S53A+A101T+S107T	GP_Gibbs	450 pM	6 of 6	0 of 18

A sequence measured in both rounds can read differently, since the two assays cover different ranges. Empty control strains, which show no peptide, gave a signal in 1% of pairings with all heavy chain designs; the median was 120 nM and 95% of these signals were weaker than 7.0 nM. No background was subtracted. The control count says in how many pairings with the empty strains this scFv gave a signal. The authors averaged sequences with at least three values out of six and counted those with two or fewer as poor binders.

Values reported by Li et al. 2023, doi:10.1038/s41467-023-39022-2 (FLAb copy).